Test results published in patent US20150038541A1, “COMPOSITION AND METHODS FOR CELL MODULATION” (APOSIGNAL BIOSCIENCE LLC, priority 2012, published 2015).

Tested on: HeLa cells
Settings: HeLa cells pretreated with 10 nM AS-7 for two hours and continuous presence; TNF-alpha 2.5 to 20 nanograms per ml plus cycloheximide

## N#Cc1cccc(C(C(=O)NCC(c2ccccc2)c2ccccc2)N(CCc2c[nH]cn2)C(=O)c2ccccc2C(=O)c2ccccc2)c1 (stereo not shown) [AS-7]
  effect on the cytotoxicity evoked by TNF-alpha: failed to block the cytotoxicity
